The target in test [1] is MC5-R (HEK-293 cells expressing MC5-R) (Homo sapiens, UniProt P33032). The test can be described thus: cAMP assay for agonist/antagonist status. The note with it: antagonism = inhibition of α-MSH-induced cAMP. Background: Changes in cAMP serve as a functional read-out for many G protein-coupled receptors.
Test [2] deals with MC4-R (HEK-293 cells expressing MC4-R) (Homo sapiens, UniProt P32245). The test can be described thus: cAMP assay for agonist/antagonist status. The settings on record: antagonism = inhibition of α-MSH-induced cAMP.
Test [3] has as its target MC1-R (B-16 mouse melanoma cells) (Mus musculus, UniProt Q01727). The test can be described thus: cAMP assay for agonist/antagonist status. The settings on record: antagonism = inhibition of α-MSH-induced cAMP.
Test [4] can be described thus: penile erection (PE) studies in male rats. The note with it: IV, 1 μg/Kg, 30 minutes observation, stated below baseline.

Sequences of proteins named here, by UniProt entry; tags and fusion partners are left off.
UniProt P33032, whole entry: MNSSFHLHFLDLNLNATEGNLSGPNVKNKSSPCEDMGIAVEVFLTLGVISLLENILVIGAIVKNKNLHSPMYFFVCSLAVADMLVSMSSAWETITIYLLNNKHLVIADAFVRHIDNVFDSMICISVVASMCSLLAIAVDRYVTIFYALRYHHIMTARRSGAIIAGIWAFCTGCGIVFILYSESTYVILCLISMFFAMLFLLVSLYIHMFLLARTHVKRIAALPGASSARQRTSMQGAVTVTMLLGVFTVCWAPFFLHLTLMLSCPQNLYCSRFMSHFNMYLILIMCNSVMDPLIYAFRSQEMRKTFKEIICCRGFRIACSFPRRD
UniProt P32245, whole entry: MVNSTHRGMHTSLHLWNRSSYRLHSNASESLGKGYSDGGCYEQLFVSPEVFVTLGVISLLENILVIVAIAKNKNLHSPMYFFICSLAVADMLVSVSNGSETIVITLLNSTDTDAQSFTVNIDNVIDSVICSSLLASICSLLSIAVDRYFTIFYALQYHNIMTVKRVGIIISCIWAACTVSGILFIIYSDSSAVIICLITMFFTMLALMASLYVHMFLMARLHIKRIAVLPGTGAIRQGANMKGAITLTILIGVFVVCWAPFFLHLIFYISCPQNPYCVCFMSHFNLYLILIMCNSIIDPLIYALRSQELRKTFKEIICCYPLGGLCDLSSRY
UniProt Q01727, whole entry: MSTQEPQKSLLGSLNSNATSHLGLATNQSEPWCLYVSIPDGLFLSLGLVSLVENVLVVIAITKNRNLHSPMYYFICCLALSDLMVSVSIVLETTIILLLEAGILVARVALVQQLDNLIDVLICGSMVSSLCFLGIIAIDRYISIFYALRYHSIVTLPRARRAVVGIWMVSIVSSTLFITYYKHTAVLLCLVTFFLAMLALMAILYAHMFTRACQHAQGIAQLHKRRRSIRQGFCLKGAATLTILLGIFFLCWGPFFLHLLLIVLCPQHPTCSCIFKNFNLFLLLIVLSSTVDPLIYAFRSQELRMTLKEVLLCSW

Consider `N=C(N)NCCC[C@H]1C(=O)N2C(CC[C@@H]2COc2ccc3ccccc3c2)N1C(=O)[C@@H](Cc1ccc(Cl)cc1Cl)NC(=O)[C@@H]1CC[C@H](c2ccccc2)N1` (stereo partly shown), for which the “agonist/antagonist status as to MC5-R” value in test [1] was “agonist”. The “agonist/antagonist status as to MC4-R” value in test [2] is “antagonist”. Also, the “agonist/antagonist status as to MC1-R” value in test [3] is “agonist”.
On to `N=C(N)NCCC[C@H]1C(=O)N2C(CC[C@@H]2COc2ccc3ccccc3c2)N1C(=O)[C@@H](Cc1ccc(Cl)cc1Cl)NC(=O)[C@@H]1Cc2ccccc2CN1` (stereo partly shown), for which, in test [4], the “mean PE” value is listed as 0.125. Besides, the “agonist/antagonist status as to MC5-R” value in test [1] is on record as “antagonist”. For the same molecule, the “agonist/antagonist status as to MC4-R” value in test [2] is “antagonist”. Besides, the “agonist/antagonist status as to MC1-R” value in test [3] is “inactive”.

These data come from US7732451B2, “Naphthalene-containing melanocortin receptor-specific small molecule” (Palatin Technologies, Inc., priority 2002, dated 2010).
